Experimental data reported in ChEMBL document CHEMBL1153532, “Design and evaluation of novel biphenyl sulfonamide derivatives with potent histamine H(3) receptor inverse agonist activity” (J Med Chem, 2009).

Amino acid sequences for entries named in this document (tags omitted). A change or cut given only in a name is not applied to a line headed by its entry.
UniProt Q9QYN8: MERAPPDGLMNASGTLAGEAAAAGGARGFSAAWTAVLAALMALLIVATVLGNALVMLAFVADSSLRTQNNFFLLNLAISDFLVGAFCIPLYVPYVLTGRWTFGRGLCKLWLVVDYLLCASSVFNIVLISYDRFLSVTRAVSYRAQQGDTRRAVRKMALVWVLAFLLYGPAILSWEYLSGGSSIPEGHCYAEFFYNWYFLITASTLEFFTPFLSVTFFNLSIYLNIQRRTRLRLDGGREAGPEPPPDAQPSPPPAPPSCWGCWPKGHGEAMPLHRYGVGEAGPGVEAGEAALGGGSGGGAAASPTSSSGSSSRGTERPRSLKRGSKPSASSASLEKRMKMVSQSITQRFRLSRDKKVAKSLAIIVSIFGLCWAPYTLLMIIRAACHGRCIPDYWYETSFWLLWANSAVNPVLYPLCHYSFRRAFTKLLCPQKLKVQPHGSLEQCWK

Biological target: Histamine H3 receptor (Rattus norvegicus, UniProt Q9QYN8)
Test: Displacement of N-[3H]methylhistamine from histamine H3 receptor in rat cortex membrane
Type: cell membranes

| SMILES | Ki (read-out: pKi (converted)) [nM] | Ki (read-out: Ki) [nM] |
| --- | --- | --- |
| C[C@@H]1CCCN1CCc1ccc(-c2ccc(S(=O)(=O)NCC3CC3)cc2)cc1 | 2.51 |  |
| CCNS(=O)(=O)c1ccc(-c2ccc(CCN3CCC[C@H]3C)cc2)cc1 |  | 3 |
